# Measurements from article PMC7394479 (Journal of medicinal chemistry, 2020).
# Chains of the proteins cited; added tags and fusions are not shown. Lines headed by an entry give the natural chain unless they say otherwise; changes in a name come on top.
# UniProt P43116: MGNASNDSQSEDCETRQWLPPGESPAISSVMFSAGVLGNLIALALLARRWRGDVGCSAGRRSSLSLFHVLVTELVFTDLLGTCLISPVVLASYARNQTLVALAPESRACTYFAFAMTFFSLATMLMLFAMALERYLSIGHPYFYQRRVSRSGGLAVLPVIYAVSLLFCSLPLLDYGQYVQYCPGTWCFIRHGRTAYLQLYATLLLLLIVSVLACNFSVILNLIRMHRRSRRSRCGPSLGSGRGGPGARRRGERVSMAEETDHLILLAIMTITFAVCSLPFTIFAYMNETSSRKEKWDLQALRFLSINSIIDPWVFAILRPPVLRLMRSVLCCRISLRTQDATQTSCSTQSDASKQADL
# Assays:
# [1] = Mouse liver microsomal stability; conditions: for fold higher half-life in mouse liver microsomes: 24i vs 20o, 20c vs 20b, 20f vs 20e
# [2] = test system: MDR1-MDCK cell line; experiment: Permeability across MDR1-expressed MDCK cell monolayers
# [3] = target: human EP2 receptor (Homo sapiens, UniProt P43116); experiment: Cell-based cAMP TR-FRET assay, Schild KB against PGE2 at EP2; conditions: comparator 2a
compound,measurement,setting,value
"Cc1cc(C)nc(Nc2ncc(C(=O)NCC(O)c3c(C)[nH]c4ccccc34)cn2)c1 (stereo not drawn) [24i, 2-((4,6-Dimethylpyridin-2-yl)amino)-N-(2-hydroxy-2-(2-methyl-1H-indol-3-yl)ethyl)pyrimidine-5-carboxamide]",fold higher half-life in mouse liver microsomes,[1],3 fold
same,half-life at 1 μM,"[1]; mouse, pooled liver microsomes",57 min
"Cc1[nH]c2ccccc2c1CCNC(=O)c1cnc(Nc2cc(F)ccn2)nc1 [20c, 2-((4-Fluoropyridin-2-yl)amino)-N-(2-(2-methyl-1H-indol-3-yl)ethyl)pyrimidine-5-carboxamide]",fold higher half-life in mouse liver microsomes,[1],2 fold
Cc1[nH]c2ccccc2c1CCNC(=O)c1ccc(-c2nnn[nH]2)cc1 [compound 3],efflux pump substrate status,[2],not a substrate of efflux pumps
"COc1ccccc1-c1ncc(C(=O)NCCc2c(C)[nH]c3ccccc23)cn1 [14a, 2-(2-Methoxyphenyl)-N-(2-(2-methyl-1H-indol-3-yl)ethyl)pyrimidine-5-carboxamide]",efflux pump substrate status,[2],may be a substrate for efflux pumps
"COc1cccc(-c2ccc(C(=O)NCCc3c(C)[nH]c4ccccc34)cn2)c1 [8b, 6-(3-Methoxyphenyl)-N-(2-(2-methyl-1H-indol-3-yl)ethyl)nicotinamide]",fold improved EP2 potency in comparison to 2a,[3],2 fold
